According to paper PMC5365662, “A Short Double-Stapled Peptide Inhibits Respiratory Syncytial Virus Entry and Spreading” (Antimicrobial Agents and Chemotherapy, 2017):

Columns and labels:
[1] = Far-UV circular dichroism, α-helical content; type: physicochemical; conditions: CD
Description: The circular dichroism spectra were acquired on a Chirascan spectropolarimeter. The samples were prepared in 10 mM phosphate buffer, pH 7.5, at a peptide concentration of 50 μM. Data were recorded at 25°C by step scan from 180 nm to 260 nm in a 0.5-mm path length quartz cell using 1-nm wavelength increments and a response time of 1 s. The data were converted to per residue molar ellipticity units [θ] (degree per square centimeter per decimole per residue) and smoothed using the Igor Pro software. The percentage of helicity was calculated as described previously ([35]).

[2] = system: recombinant GFP-expressing RSV (strain A2) in A549 cells; type: cell-based, human respiratory syncytial virus; conditions: GFP-positive cells by FACS 24 h p.i.
Description: A549 cells were infected with a recombinant green fluorescent protein (GFP)-expressing RSV (strain A2) ([23]), and the inhibitory activity of the peptide was quantified by flow cytometry.
Each peptide was diluted 3 times by 2-fold serial dilutions. eGFP RSV virus at an MOI of 0.5 was used for the infection, and GFP-positive cells were counted by FACS analysis 24 h p.i. The GFP data were normalized to the fluorescence values observed with virus only and plotted as percent inhibition.
Serial 4-fold dilutions of inhibitors were mixed with eGFP-encoding RSV virus ([23]) with a volume of virus required to achieve approximately 50% of infection in medium containing 2% fetal calf serum. The resulting mixture was added to 24-well plates containing A549 cells. Cells were incubated for 2 h at 37°C, the medium was replaced, and cells were incubated for an additional 24 h. Cells were treated with 300 μl of trypsin for 10 min at 37°C, and the detached cells were diluted in 1 ml of culture medium. Following centrifugation at 1,700 rpm, the pellet was resuspended in 300 μl of PBS–1% fetal bovine serum (FBS) (vol/vol) and GFP-positive cells were counted by fluorescence-activated cell sorter (FACS) analysis. The GFP data were normalized to the fluorescence value observed with virus only. The resulting inhibition curves were fitted in Igor Pro as described above.

[3] = circular dichroism; conditions: 10 mM phosphate; pH 7.5; 25 °C; 50 uM

CC[C@H](C)[C@@H]1NC(=O)[C@H](Cc2ccccc2)NC(=O)[C@@](C)(NC(=O)[C@H](CC(C)C)NC(=O)[C@H](CO)NC(=O)[C@H](CCC(N)=O)NC(=O)[C@H](CCC(=O)O)NC(C)=O)CCCC=CCCC[C@@](C)(C(=O)N[C@@H](CO)C(=O)N[C@@H](CC(=O)O)C(=O)N[C@@]2(C)CCCC=CCCC[C@@](C)(C(=O)N[C@H](C(N)=O)C(C)C)NC(=O)[C@H](Cc3c[nH]cn3)NC(=O)[C@H](CC(C)C)NC(=O)[C@H](CC(C)C)NC2=O)NC(=O)[C@H](CCCNC(=N)N)NC1=O [Peptide 3ac]
θ208/θ222 molar ellipticity ratio ([1]; indicator of α-helical stability): ~1
inhibition of RSV-eGFP infection (in words) [2]: capable of blocking viral infection of cells similarly to T108
helicity [3]: 47.2%

CC[C@H](C)[C@@H]1NC(=O)[C@H](CCCCN)NC(=O)[C@](C)(NC(C)=O)CCCCCCC=CCCC[C@@](C)(C(=O)N[C@@H](Cc2ccccc2)C(=O)N[C@H](C(=O)N[C@@H](CCCNC(=N)N)C(=O)N[C@]2(C)CCCCCCC=CCCC[C@@](C)(C(=O)N[C@H](C(N)=O)C(C)C)NC(=O)[C@H](Cc3c[nH]cn3)NC(=O)[C@H](CC(C)C)NC(=O)[C@H](CC(C)C)NC(=O)[C@H](CCC(=O)O)NC(=O)[C@H](CC(=O)O)NC(=O)[C@H](CO)NC2=O)[C@@H](C)CC)NC(=O)[C@H](CC(C)C)NC(=O)[C@H](CO)NC(=O)[C@H](CCC(N)=O)NC(=O)[C@H](CC(N)=O)NC1=O [Peptide 4ef]
% Helicity ([1]; Table 2, 10 mM phosphate buffer pH 7.5, 50 μM peptide, 25°C): 50.7%
helicity [3]: 50.7%
